Experimental data from patent US8058510B2, “Method and means to modulate programmed cell death in eukaryotic cells” (Bayer Bioscience N.V., priority 1998, dated 2011).

Molecular target: APP (Arabidopsis thaliana, UniProt Q11207)
Test: Poly(ADP-ribose) polymerase activity assay in total protein extracts of yeast expressing APP
Conditions: extract of DY(pV8SPA) grown on galactose, FIG. 5A lane 1; majority in 10-15-mer

B1: APP: NAP protein of Arabidopsis thaliana (SEQ ID No 6), non-conventional PARP, expressed in yeast (protein, listed as Arabidopsis thaliana)
chain: MANKLKVDELRLKLAERGLSTTGVKAVLVERLEEAIAEDTKKEESKSKRKRNSSNDTYESNKLIAIGEFRGMIVKELREEAIKRGLDTTGTKKDLLERLCNDANNVSNAPVKSSNGTDEAEDDNNGFEEEKKEEKIVTATKKGAAVLDQWIPDEIKSQYHVLQRGDDVYDAILNQTNVRDNNNKFFVLQVLESDSKKTYMVYTRWGRVGVKGQSKLDGPYDSWDRAIEIFTNKFNDKTKNYWSDRKEFIPHPKSYTWLEMDYGKEENDSPVNNDIPSSSSEVKPEQSKLDTRVAKFISLICNVSMMAQHMMEIGYNANKLPLGKISKSTISKGYEVLKRISEVIDRYDRTRLEELSGEFYTVIPHDFGFKKMSQFVIDTPQKLKQKIEMVEALGEIELATKLLSVDPGLQDDPLYYHYQQLNCGLTPVGNDSEEFSMVANYMENTHAKTHSGYTVEIAQLFRASRAVEADRFQQFSSSKNRMLLWHGSRLTNWAGILSQGLRIAPPEAPVTGYMFGKGVYFADMFSKSANYCYANTGANDGVLLLCEVALGDMNELLYSDYNADNLPPGKLSTKGVGKTAPNPSEAQTLEDGVVVPLGKPVERSCSKGMLLYNEYIVYNVEQIKMRYVIQVKFNYKH
length of poly(ADP-ribose) polymers synthesized: up to 40 residues
